This note sets out measurements from PubChem BioAssay AID1347077 (National Center for Advancing Translational Sciences (NCATS), 2019).

By UniProt entry, the sequences of proteins in these tests, tags left out.
UniProt P07550, whole entry: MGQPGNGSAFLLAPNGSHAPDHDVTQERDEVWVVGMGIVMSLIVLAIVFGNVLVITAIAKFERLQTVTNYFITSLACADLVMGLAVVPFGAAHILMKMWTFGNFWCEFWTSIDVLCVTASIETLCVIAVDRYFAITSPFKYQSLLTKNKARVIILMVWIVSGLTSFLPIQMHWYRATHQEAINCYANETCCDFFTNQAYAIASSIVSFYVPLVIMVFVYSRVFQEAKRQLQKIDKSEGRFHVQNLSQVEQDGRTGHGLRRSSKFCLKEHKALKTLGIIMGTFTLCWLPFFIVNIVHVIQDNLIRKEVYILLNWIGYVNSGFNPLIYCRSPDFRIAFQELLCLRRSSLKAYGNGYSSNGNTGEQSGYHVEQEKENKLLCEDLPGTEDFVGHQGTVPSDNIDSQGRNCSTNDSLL

The list shows a part of the results, in another mix than the full data. Activity calls are given as the source filed them. The call rests on the fitted dose curve; in most records, active means well fitted activation curve with a large enough effect; inconclusive means small, poorly fitted or top-dose-only effect, or another doubt; inactive means no such curve, though single readings can be large or run the other way.

The target of this test is Beta-2 adrenergic receptor (Homo sapiens) (UniProt P07550). As to the kind of experiment: qHTS assay of beta-arrestin-biased ligands of beta2-adrenergic receptor: NCGC Sytravon Library Screen.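 Further: 0% = DMSO and full agonism = EC100 isoproterenol or metaproterenol.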 Conditions: HTLA Tango cells, beta-arrestin recruitment, luciferase luminescence, 18 h; at 46.1 µM (top of the series). The source says:
The concept of biased agonism is an emerging concept of molecular pharmacology which proposes that seven transmembrane receptors (7TMRs) or G protein-coupled receptors (GPCRs), exist in multiple signaling conformations and complexes and that ligands (either agonists or antagonists) can induce signaling biased responses for distinct signal transduction cascades. […] Furthermore, accumulating evidence over the last decade has drawn attention to a novel function of beta-arrestins as signal transducers that scaffold various signaling molecules upon activation of 7TMRs. […] This beta-arrestin-biased signaling presumably leads to distinct physiological outcomes from those by G protein activation. Additionally, the active receptor conformations which prefer on this beta-arrestin signaling are likely different from those activating G protein signaling. […] The goal of this screening project will be to discover and optimize novel beta-arrestin-biased ligands for beta2-AR signaling. A luminescent cell-based assay for beta2-AR-mediated agonism, known as the Tango assay, has been validated in which ligand binding of a recombinant beta2-AR and subsequent recruitment of a recombinant beta-arrestin lead to the release of the transcriptional activator tTA, which upregulates transcription of a tTA-responsive luciferase gene. […] Compounds from the NCGC Sytravon Library collection were screened as a concentration-titration series that ranged from 46 microM to 0.6 nM. NIH Molecular Libraries Probe Production Network [MLPCN] NIH Chemical Genomics Center [NCGC] MLPCN Grant: Fast-track/HHSN271700800025C PI: Bryan Roth and Bob Lefkowitz
Tango cells were dispensed into white, solid, tissue-culture-treated 1536-well plates at 1500 cells/well in DMEM, containing 1% fetal bovine serum (FBS). Then, 23 nL of compounds or DMSO were delivered to each well using a pin tool. Plates were incubated at 37 degrees C, 5% CO2 for 18 hr. Then 2.5 uL luminescent substrate mix (in-house prepared: 150 mM Tris-Cl, pH 7.6, 3 mM MgCl2, 1% Triton X-100, 5 mM DTT, 0.5 mM CoA, 0.15 mM ATP, 0.44 mM D-luciferin, final concentrations) was added to each well. Plates were then incubated for 15 minutes at room temperature, and subsequently measured on a ViewLux plate reader for luminescent signal using a clear filter with a 10 second exposure and 2x binning. The %Activity was determined from the corrected luminescence values. […] Concentration-response curves were fitted to the signals arising from the resulting luminescence. The concentration-effect curves were then classified based on curve quality (r2), response magnitude and degree of measured activity, and compounds were subsequently categorized based on their curve class.
For `O=C(NCC1(N2CCOCC2)CCCCC1)c1ccccc1Br`, the activation is inactive: -3.59%.

As for `CCCCOc1ccccc1C(=O)NCC1(N2CCOCC2)CCCCC1`, the activation was inactive: -3.47%. Under `CCCOc1cccc(C(=O)NCC2(N3CCOCC3)CCCCC2)c1` stands inactive: 0.941%.

For the molecule `CCOc1ccc(C(=O)NCC2(N3CCOCC3)CCCCC2)cc1`, the activation was inactive: -2.96%.

With `O=C(NCC1(N2CCOCC2)CCCCC1)c1ccc(Cl)cc1`, the activation is inactive: -2.47%. Under `COc1ccccc1C(=O)NCC1(N2CCOCC2)CCCCC1` stands inactive: -4.66%; under `COc1cc(C(=O)NCC2(N3CCOCC3)CCCCC2)cc(OC)c1OC`, inactive: -2.85%; under `CC(C)(C)c1ccc(C(=O)NCC2(N3CCOCC3)CCCCC2)cc1`, inactive: -3.85%. Consider `Cc1ccccc1C(=O)NCC1(N(C)C)CCCCC1`, for which the activation is inactive: -0.635%.

`CN(C)C1(CNC(=O)c2ccc(C(C)(C)C)cc2)CCCCC1`: the activation is inactive: -2.5%.

For the molecule `O=C(NCC1(N2CCOCC2)CCCCC1)c1ccccc1`, the activation was inactive: -2.89%. Then `O=C(NCC1(N2CCOCC2)CCCCC1)c1ccc([N+](=O)[O-])cc1`, with inactive: -4.06%; and `O=C(NCC1(N2CCOCC2)CCCCC1)c1ccccc1[N+](=O)[O-]`, with inactive: -3.69%.
